Molecular target: Acetyl-CoA carboxylase 1 (Rattus norvegicus, UniProt P11497)
Experiment: Inhibition of rat liver ACC1 after 7 mins by liquid scintillation counter

IC50 [nM] | Compound
92 | O=C(c1c2ccccc2cc2ccccc12)N1CCC(N2CCC[C@@H](C(=O)N3CCOCC3)C2)CC1
325 | Cc1ccc2cc(CC3CCN(C(=O)c4c5ccccc5cc5ccccc45)CC3)ccc2n1
